From paper PMC6299426 (Theranostics, 2018)

Experiment: Identification of albiflorin metabolites in vivo
Parameters: species or system ICR mice
Conditions: after albiflorin administration
Summary of the method: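 Fecal metabolites were profiled by LC/MSn-IT-TOF. Feces were extracted with methanol (1/10, g/mL) by ultrasound for 30 min and centrifuged 10 min at 21100 ×g; 20 μL of supernatant was injected. Separation used a C18 column (250 × 4.6 mm, 5 μm) with a water/0.5% formic acid–methanol gradient at 0.8 mL/min over 45 min. Brain was sampled 2 h after oral dosing at 14 mg/kg, with analytes quantified by HPLC-MS/MS.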

Where the metabolite was detected in mice: only detected in the feces
Substance: glutathione-conjugated albiflorin [M4]
